Yeast mating assay B: variants of the scFv Ab-14

Target: peptide PDVDLGDISGINAS, taken from heptad repeat 2 (HR2) of SARS-CoV-2 spike.

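Phage display of a naive human antibody library on the peptide gave the parent. Designed CDR sequences, proposed from the first random library and measured here. Several design methods are mixed in this list. AlphaSeq pools MATa yeast showing the antibodies with MATalpha yeast showing the peptide. Binding brings cells together so that they mate, and sequencing counts the barcode pairs among the diploids. Read counts were normalised to the haploid input and turned into Kd by a linear fit to BCL2-family pairs of known affinity, for each replicate. Each pool was mated in six replicate cultures.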

Each scFv is VH, the linker GGGGSGGGGSGGGGS, VL, as in the parent Ab-14, and differs from it in the CDRs of the heavy chain only.
VH: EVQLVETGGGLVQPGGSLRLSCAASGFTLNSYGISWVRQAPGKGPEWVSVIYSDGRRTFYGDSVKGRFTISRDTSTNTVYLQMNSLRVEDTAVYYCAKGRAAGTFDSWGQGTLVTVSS
VL: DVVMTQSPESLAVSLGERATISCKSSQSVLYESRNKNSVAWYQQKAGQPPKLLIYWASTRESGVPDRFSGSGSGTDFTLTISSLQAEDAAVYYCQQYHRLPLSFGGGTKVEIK

Each variant is given by its three heavy chain CDRs, as the data file delimits them; those of the parent are GFTLNSYGIS, VIYSDGRRTFYGDSVK, GRAAGTFDS. Affinities are written as log10 Kd with Kd in nM; a lower number is a better binder. Replicates are averaged; those with no signal do not enter the mean. "nd" marks a missing value. The strain was present, yet no cells mated with the target were sequenced in any replicate, which points to weak or no binding. Values of this round are not directly comparable with the first-round values of the same sequences. The parent sequence was in this pool as ten entries: three were never detected, three once, and four in most replicates, with averages from 0.34 to 2.37. In the paper, a design with two or fewer of six values counts as a poor binder. A sequence that the file lists under several names has all its replicates pooled. Three control strains display no target. For all heavy chain designs, 1% of the pairings with them gave a signal, with a median of 2.08 and one signal in twenty below 0.84, so weak values seen in few replicates may be background. The control count says in how many pairings with the empty strains this scFv gave a signal.

| log10 Kd (nM), mean | seen in | signal with controls | CDR-H1 | CDR-H2 | CDR-H3 |
|---|---|---|---|---|---|
| -0.53 | 6 of 6 | 0 of 18 | GFDLNEYGIS | VIYADGKRTAYSDSVK | GQTAGTFDV |
| nd | 0 of 6 | 0 of 18 | GFDLNSYGIS | VIYSDGRRTFYGGSVK | GRAPGWFNS |
| 0.46 | 6 of 6 | 1 of 18 | GFSLNDYGIS | VIYSDGRRTFYGDSVK | GRAAGTFDK |
| 0.26 | 6 of 6 | 0 of 18 | GFTLNSYGIS | VIYSDGRRTFYGDSVK | GRWAGTFKR |
| 0.98 | 6 of 6 | 1 of 18 | GFDLNSYGIS | VIYSDGRRTFYADRVK | GREAGTFDS |
| 1.19 | 2 of 6 | 0 of 18 | KFDLNSYGIS | VIYSDGRRTFYQDSVK | GEAAGTFDS |
| -0.04 | 6 of 6 | 1 of 18 | GFTLNEYGIS | VIYSDGRRTFYDDDVK | GRTAGTFDS |
| nd | 0 of 6 | 0 of 18 | GFTLNDYGIS | VIYSDGRRTFYGDSVK | GRAAGTDDS |
| 1.32 | 1 of 6 | 0 of 18 | GYTLNEYGIS | VIYSDGRRTAYGDSVK | GRPAGTFDL |
| -0.07 | 6 of 6 | 0 of 18 | GFDLNEYGIS | VIYADGRRTFYSDSVK | GEVGGTFDV |
| 0.44 | 6 of 6 | 0 of 18 | GFSLNSYGIS | VIYSDGRRTFYADSVK | GRVAGTFDG |
| -0.35 | 6 of 6 | 1 of 18 | GFDLDEYGIS | VIYADGMRTFYADSVK | GNVAGTFDS |
| -0.36 | 6 of 6 | 1 of 18 | GFDLNEYGIS | VIYADGFRTFYTDSVK | GEVAGTFDE |
| 0.43 | 12 of 12 | 1 of 36 | GFTLNEYGIS | VIYSDGRRTFYGDSVK | GRHAGTFDS |
| nd | 0 of 6 | 0 of 18 | GFTLNSYGIS | VIYSDGKRTFYRDSVK | GRAKGTFDS |
| 0.12 | 6 of 6 | 0 of 18 | GFDLDEYGIS | VIYADGMRTFYADSVK | GNNAGTFDV |
| 0.25 | 6 of 6 | 1 of 18 | GFDLNEYGIS | VIYADGVRTAYVDSVK | GENAGTFDL |
| 1.77 | 1 of 6 | 0 of 18 | GFTLNSYGIS | VIYSDGIRTFYGDSVD | GRAAGTFDS |
| nd | 0 of 6 | 0 of 18 | GFTLNSYGIS | VIYSDGQRTFYGDSVK | GRAAGTFDS |
| nd | 0 of 6 | 0 of 18 | GFTHNEYGIS | VIYSDGRRTFYTDSVK | GEQAGTFDS |
| nd | 0 of 6 | 0 of 18 | GFTLQSYGIS | VIYADGRRTFYLDSVK | GQAAGTFVV |
| 1.66 | 6 of 6 | 0 of 18 | GFHLNEYGIS | VIYSDGRRTFYGDSVK | GRHAGTFDS |
| -0.01 | 6 of 6 | 0 of 18 | GFSLNSYGIS | VIYSDGRRTFYSDSVK | GTAAGTFDS |
| 3.08 | 1 of 6 | 0 of 18 | GFDLNSYGIS | VIYSDGRRTFYGDSVK | GREAGVFNS |
| -0.39 | 6 of 6 | 1 of 18 | GFDLNEYGIS | VIYADGMRTFYSDSVK | GENAGTFDV |
| -0.38 | 6 of 6 | 0 of 18 | GFDLNEYGIS | VIYADGQRTAYADNVK | GNQAGTFDV |
| 0.57 | 1 of 6 | 0 of 18 | MFSLNSYGIS | VIYSDGRRTFYGDSVK | GQVAGTFDS |
| -0.71 | 6 of 6 | 0 of 18 | GFDLDEYGIS | VIYADGMRTAYVDSVK | GTNAGTFDV |
| -0.24 | 6 of 6 | 0 of 18 | GFSLNSYGIS | VIYADGRRTFYGDSVK | GQAAGTFDS |
| -0.49 | 6 of 6 | 0 of 18 | GFTLNDYGIS | VIYADGRRTFYSDSVK | GQAAGTFDS |
| nd | 0 of 6 | 0 of 18 | GFTLDSYGIT | VIYSDGRRTAYGDSVK | GDWAGTFDS |
| nd | 0 of 6 | 0 of 18 | GFPLNSYGIS | VIYSDGFRTFYGDSVK | GRAAGTFDS |
| 1.94 | 3 of 6 | 0 of 18 | GFEIDEYGIS | VIYADGLRYHYANSVK | GEMAGTFTT |
| -0.25 | 6 of 6 | 2 of 18 | GFDLDEYGIS | VIYADGSRTAYADNVK | GEVAGTFDV |
| 1.94 | 4 of 6 | 0 of 18 | GFNLNSYGIS | VIYSDGRRQFMGDSVK | GDAAGTFDS |
| 2.23 | 5 of 6 | 0 of 18 | GFTLESYGIS | VIYSDGRRTFYADAVK | GWAAGTFDS |
| 1.16 | 6 of 6 | 1 of 18 | GFWLNEYGIS | VIYSDGRRTFYGDDVK | GRTAGTFDS |
| nd | 0 of 6 | 0 of 18 | GETLNEYGIS | VIYSDGRRTFYGDSVK | TRAAGTFRS |
| 2.12 | 1 of 6 | 0 of 18 | GFTLNSYGIS | VIYSDGRRTFYGDSVK | GRASGTFDS |
| 0.81 | 5 of 6 | 0 of 18 | GFDLNEYGIS | VIYADGRRTFYIDSVK | GEVAGTFIM |
| 0.82 | 6 of 6 | 2 of 18 | GFTLNEYGIS | VIYSDGRRAFYTDSVK | GRFAGTFDS |
| nd | 0 of 6 | 0 of 18 | GFSLDEYGIS | VIYADGRRTMYCDNFK | GELGCTFKM |
| -0.72 | 6 of 6 | 1 of 18 | GFDLNEYGIS | VIYADGVRTAYSDSVK | GTNAGTFDM |
| nd | 0 of 6 | 1 of 18 | LFTLNSYGIS | VIYSDGRRTSYGDSVK | GKAAGTFDS |
| nd | 0 of 6 | 0 of 18 | GKGLDEYGVS | VIYADGKRKSYVDDVK | GGIAGNFLV |
| 2.14 | 3 of 6 | 1 of 18 | HFDLNSYGIS | VIYSDGRRTFYIDSVK | GRTAGTFDS |
| nd | 0 of 6 | 0 of 18 | GFTLNEYGIS | VIYSDGRRTFYGDSVK | GRAAWTFIL |
| -0.54 | 6 of 6 | 0 of 18 | GFDLNEYGIS | VIYADGMRTFYTDSVK | GEVAGTFDD |
| 3.39 | 1 of 6 | 2 of 18 | GFDLNEYGIS | VIYADGRRTAYSDSVK | GGNAGFFDA |
| nd | 0 of 6 | 0 of 18 | GFTLESYGIS | VIYSDGLRTFYVDSVK | GSAAGTFES |
| 2.64 | 5 of 6 | 1 of 18 | GFTLNEYGIS | VIYSDGRRCFYLDSVK | GNAAGTFTS |
| -0.18 | 6 of 6 | 0 of 18 | GFDLNEYGIS | VIYADGRRTFYADSVK | GEAAGTFGL |
| 2.25 | 6 of 6 | 0 of 18 | GFTLNSYGIS | VIYSDGRRTFYGDSVK | GERAGTFDS |
| nd | 0 of 6 | 0 of 18 | GFNLESYGIS | VIYSDGRRTFYGDSVK | GRAAGTFSS |

Extract of 9 entries:

{"CDR-H1": "GFDLNEYGIS", "CDR-H2": "VIYADGVRTAYSDSVK", "CDR-H3": "GTNAGTFDM", "log10 Kd (nM), mean": "-0.72", "seen in": "6 of 6", "signal with controls": "1 of 18"}
{"CDR-H1": "GFTLNEYGIS", "CDR-H2": "VIYSDGRRTFYDDDVK", "CDR-H3": "GRTAGTFDS", "log10 Kd (nM), mean": "-0.04", "seen in": "6 of 6", "signal with controls": "1 of 18"}
{"CDR-H1": "LFTLNSYGIS", "CDR-H2": "VIYSDGRRTSYGDSVK", "CDR-H3": "GKAAGTFDS", "log10 Kd (nM), mean": "nd", "seen in": "0 of 6", "signal with controls": "1 of 18"}
{"CDR-H1": "GFDLNEYGIS", "CDR-H2": "VIYADGRRTAYSDSVK", "CDR-H3": "GGNAGFFDA", "log10 Kd (nM), mean": "3.39", "seen in": "1 of 6", "signal with controls": "2 of 18"}
{"CDR-H1": "GFDLNEYGIS", "CDR-H2": "VIYADGMRTFYTDSVK", "CDR-H3": "GEVAGTFDD", "log10 Kd (nM), mean": "-0.54", "seen in": "6 of 6", "signal with controls": "0 of 18"}
{"CDR-H1": "GFSLNSYGIS", "CDR-H2": "VIYSDGRRTFYADSVK", "CDR-H3": "GRVAGTFDG", "log10 Kd (nM), mean": "0.44", "seen in": "6 of 6", "signal with controls": "0 of 18"}
{"CDR-H1": "GFTLQSYGIS", "CDR-H2": "VIYADGRRTFYLDSVK", "CDR-H3": "GQAAGTFVV", "log10 Kd (nM), mean": "nd", "seen in": "0 of 6", "signal with controls": "0 of 18"}
{"CDR-H1": "GFDLDEYGIS", "CDR-H2": "VIYADGMRTFYADSVK", "CDR-H3": "GNNAGTFDV", "log10 Kd (nM), mean": "0.12", "seen in": "6 of 6", "signal with controls": "0 of 18"}
{"CDR-H1": "GFDLDEYGIS", "CDR-H2": "VIYADGSRTAYADNVK", "CDR-H3": "GEVAGTFDV", "log10 Kd (nM), mean": "-0.25", "seen in": "6 of 6", "signal with controls": "2 of 18"}

Values reported by Li et al. 2023, doi:10.1038/s41467-023-39022-2 (FLAb copy).